Patent US8476430B2, “Fused heterocyclic compounds useful as kinase modulators” (Bristol-Myers Squibb Company, priority 2008, dated 2013)

Protein sequences, listed by entry. Tags and fused reporters are not part of them.
UniProt Q06187, whole entry: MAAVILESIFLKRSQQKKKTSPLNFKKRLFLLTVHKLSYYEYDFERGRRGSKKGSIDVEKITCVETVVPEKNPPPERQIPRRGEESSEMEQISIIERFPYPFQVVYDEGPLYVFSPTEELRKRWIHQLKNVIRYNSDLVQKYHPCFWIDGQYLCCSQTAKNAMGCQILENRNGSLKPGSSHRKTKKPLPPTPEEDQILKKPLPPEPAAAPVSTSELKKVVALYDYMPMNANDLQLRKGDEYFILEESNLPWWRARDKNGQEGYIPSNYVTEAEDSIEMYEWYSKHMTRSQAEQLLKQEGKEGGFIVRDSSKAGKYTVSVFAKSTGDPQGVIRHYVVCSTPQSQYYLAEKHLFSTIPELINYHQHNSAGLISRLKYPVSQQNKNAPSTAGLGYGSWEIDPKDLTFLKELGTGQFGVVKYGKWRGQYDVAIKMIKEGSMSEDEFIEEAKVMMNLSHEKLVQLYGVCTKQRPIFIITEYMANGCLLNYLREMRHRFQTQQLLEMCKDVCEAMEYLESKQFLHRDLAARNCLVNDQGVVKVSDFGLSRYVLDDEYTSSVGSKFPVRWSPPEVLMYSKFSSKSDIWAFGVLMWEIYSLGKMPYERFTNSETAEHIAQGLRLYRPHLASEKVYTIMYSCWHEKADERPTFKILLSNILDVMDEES

Key:
Ramos RA1 B cells = assay: Ramos FLIPR assay; conditions: read-out: Human Ramos Cell FLIPR (IC50 μM); inhibition of peak intracellular calcium after F(ab')2 anti-IgM/IgG stimulation
Method: Ramos RA1 B cells (ATCC® CRL-1596) at a density of 2×10^6 cells/ml in RPMI minus phenol red (Invitrogen 11835-030) and 50 mM HEPES (Invitrogen 15630-130) containing 0.1% BSA (Sigma A8577) were added to one half volume of calcium loading buffer (BD bulk kit for probenecid sensitive assays, #640177) and incubated at room temperature in the dark for 1 hour. Dye-loaded cells were pelleted (Beckmann GS-CKR, 1200 rpm, RT, 5 minutes) and resuspended in RT RPMI minus phenol red with 50 mM HEPES and 10% FBS to a density of 1×10^6 cells/ml. 150 μl aliquots (150,000/well) were plated into 96 well poly-D-lysine coated assay plates (BD 35 4640) and briefly centrifuged (Beckmann GS-CKR 800 rpm, 5 minutes, without brake). 50 μal compound dilutions in 0.4% DMSO/RPMI minus phenol red+50 mM HEPES+10% FBS were added to the wells and the plate was incubated at RT in the dark for 1 hour. Assay plate was briefly centrifuged as above prior to measuring calcium levels.
Using the FLIPR1 (Molecular devices), cells were stimulated by adding 50 μl 200 μg/ml F(ab′)2 anti-IgM/IgG (Jackson ImmunoResearch 109-006-127) diluted in 1×HBSS (Invitrogen 14025-076), 50 mM HEPES, 0.1% BSA. Changes in intracellular calcium concentrations were measured for 180 seconds and percent inhibition was determined relative to peak calcium levels seen in the presence of F(ab′)2 anti-IgM/IgG only.

human recombinant Btk = human recombinant Btk (Homo sapiens, UniProt Q06187); assay: Human recombinant Btk enzyme assay; conditions: human recombinant Btk 1 nM, ATP 20 μM, 60 min room temperature
Method: Human Recombinant Btk Enzyme Assay
To V-bottom 384-well plates were added test compounds, human recombinant Btk (1 nM, Invitrogen Corporation), fluoresceinated peptide (1.5 μM), ATP (20 μM), and assay buffer (20 mM HEPES pH 7.4, 10 mM MgCl2, 0.015% Brij35 and 4 mM DTT in 1.6% DMSO), with a final volume of 30 μL. After incubating at room temperature for 60 min, the reaction was terminated by adding 45 μl of 35 mM EDTA to each sample. The reaction mixture was analyzed on the Caliper LABCHIP® 3000 (Caliper, Hopkinton, Mass.) by electrophoretic separation of the fluorescent substrate and phosphorylated product. Inhibition data were calculated by comparison to no enzyme control reactions for 100% inhibition and no inhibitor controls for 0% inhibition. Dose response curves were generated to determine the concentration required inhibiting 50% of kinase activity (IC50). Compounds were dissolved at 10 mM in dimethylsulfoxide (DMSO) and evaluated at eleven concentrations.

[1] = molecular target: Btk (pY551) in Ramos cells (Homo sapiens, UniProt Q06187); assay: Btk phosphorylation assay; conditions: read-out: IC50 value, Btk phosphorylation, 1 hr preincubation, anti-human IgM+IgG 50 μg/mL 2 min, Alexa647 anti-Btk (pY551) MFI
Method: Btk Phosphorylation Assay
Ramos cells (˜6×10^6 cells/ml) were incubated in the presence of Btk inhibitors for 1 hr at 37° C. before being stimulated with anti-human IgM+IgG (F(ab′)2 fragment, Jackson ImmunoResearch, catalog #109-006-127) at 50 μg/mL for exactly 2 min at 37° C. Cells were immediately fixed by adding an equal volume of pre-warmed BD PhosFlow Fix buffer I (BD Biosciences, catalog number 557870) to the cell suspension. After incubating at 37° C. for 10 minutes, the cells were washed once with 3 mL FACS washing buffer (1% FBS/PBS) and permeabilized by adding 0.5 mL of cold BD PhosFlow Perm Buffer III (BD Biosciences, catalog number 558050) and incubating for 30 minutes on ice. The cells were washed an additional two times with 3 mL BD FACS washing buffer, re-suspended in 100 μl FACS washing buffer, stained with 20 L Alexa647 anti-Btk (pY551) (BD Biosciences, catalog number 558134), incubated at room temperature for 30 minutes in the dark, and washed once with 3 ml of FACS washing buffer. The cells were re-suspended in 400 μl FACS wash buffer and analyzed using FACSCalibur (BD Biosciences). Median fluorescent intensity (MFI) on Alexa 647 (FL-4) data were collected and used for calculations of inhibition.

Compound | IC50 (Ramos RA1 B cells) [µM] | pIC50 (human recombinant Btk) | pIC50 [1]
Cc1c(NC(=O)c2ccc(C3CC3)cc2)cccc1-c1nc(Nc2ccc(C(=O)N3CCOCC3)cc2)c2nccn2n1 | 0.264 | 6.95 | –
Cc1c(NC(=O)c2ccc(N3CCCC3)cc2)cccc1-c1nc(Nc2ccc(C(=O)N3CCOCC3)cc2)c2nccn2n1 | 0.515 | 6.44 | –
Cc1c(NC(=O)c2ccc(C(F)(F)F)cc2)cccc1-c1nc(Nc2ccc(C(=O)N3CCOCC3)cc2)c2nccn2n1 | 1.99 | 5.87 | –
Cc1c(NC(=O)c2ccc(C(C)C)cc2)cccc1-c1nc(Nc2ccc(C(=O)N3CCOCC3)cc2)c2nccn2n1 | – | – | 6.49

Continued, in another order:

IC50 (Ramos RA1 B cells) [µM] | pIC50 (human recombinant Btk) | Compound | pIC50 [1]
0.3 | 6.47 | Cc1c(NC(=O)c2ccc(C(C)(C)O)cc2)cccc1-c1nc(Nc2ccc(C(=O)N3CCOCC3)cc2)c2nccn2n1 | –
– | 7.52 | Cc1c(NC(=O)c2ccc(N(C)C)cc2)cccc1-c1nc(Nc2ccc(C(=O)N3CCOCC3)cc2)c2ncc(N)n2n1 | –

pIC50: −log10 of the molar value.
